Key:
Format in all cases: biochemical
[1] = molecular target: human recombinant caspase-3 (Homo sapiens, UniProt P42574); assay: In vitro high throughput caspase-3 assay; settings: for IC50: fixed substrate concentration of 55 μM, inhibitors 75 to 0.067 μM in duplicate; for Percent Activity: percentage of the positive control, 20-250 μM test compound, lower = better inhibition, negative = better than control caspase inhibitor; for Ki: read-out: Ki(app), calculated from IC50 according to Equation 1
α-chymotrypsin = α-chymotrypsin (Bos taurus, UniProt P00766, DEL14-15/DEL147-148); assay: Cross-reactivity protease inhibition assay (QuantiCleave), chymotrypsin; settings: ratio Abs450nm with inhibitor / without inhibitor; 100 μM compound
Description: (§1) To evaluate whether inhibition was specific to caspase-3 or applicable to other cysteine proteases or other proteases, inhibitor molecules were assayed for their capacity to inhibit additional non-caspase proteases. Three proteases, TPCK-trypsin, α-chymotrypsin and papain, were used to test for protease inhibition cross-reactivity. Protease inhibition assays were performed in 96-well flat-bottomed micro-titer plates with the QuantiCleave™ protease assay kit (Pierce, Rockford, Ill.) according to the manufacturer's instructions. Briefly, the assay conditions contained 100 μM compound, 2 mg/mL of succinylated-casein and 0.15 mg/mL of the protease. The assay incubated in a final volume of 150 μLs 0.05 M sodium borate pH 8.5 buffer (NaB-buffer) for 20 minutes at 25° C. […] Absorbance values at 450 nm were read in an Emax (Molecular Devices, Sunnyvale, Calif.) micro plate reader. […]
(§2) Relative activities in the presence of inhibitor were calculated by taking the ratio of absorbance for a reaction containing inhibitor to the absorbance for a reaction without inhibitor. Significant inhibition was determined by testing the null hypothesis of equivalence between the mean absorbance of reactions containing inhibitor and the mean absorbance of reactions without inhibitor (2 tailed t-test, 2 df). […]

By UniProt entry, the sequences of proteins in these tests, tags left out. Residues count along the entry.
UniProt P42574, 29-175 limits assumed: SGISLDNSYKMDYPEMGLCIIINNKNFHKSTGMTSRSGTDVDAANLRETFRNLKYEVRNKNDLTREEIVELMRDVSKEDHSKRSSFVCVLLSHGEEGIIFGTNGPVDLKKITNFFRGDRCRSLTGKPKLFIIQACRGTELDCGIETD
UniProt P42574, 176-277 limits assumed: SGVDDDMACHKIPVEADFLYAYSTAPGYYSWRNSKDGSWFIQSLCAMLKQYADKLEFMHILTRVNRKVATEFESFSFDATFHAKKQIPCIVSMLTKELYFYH
UniProt P00760, 24-246 limits assumed: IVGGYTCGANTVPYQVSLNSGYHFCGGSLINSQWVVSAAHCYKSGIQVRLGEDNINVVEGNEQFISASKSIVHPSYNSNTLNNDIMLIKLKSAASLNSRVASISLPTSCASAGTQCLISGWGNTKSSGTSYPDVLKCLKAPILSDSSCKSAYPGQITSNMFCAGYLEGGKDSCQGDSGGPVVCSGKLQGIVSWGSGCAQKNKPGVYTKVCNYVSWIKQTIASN
UniProt P00784, 134-345 limits assumed: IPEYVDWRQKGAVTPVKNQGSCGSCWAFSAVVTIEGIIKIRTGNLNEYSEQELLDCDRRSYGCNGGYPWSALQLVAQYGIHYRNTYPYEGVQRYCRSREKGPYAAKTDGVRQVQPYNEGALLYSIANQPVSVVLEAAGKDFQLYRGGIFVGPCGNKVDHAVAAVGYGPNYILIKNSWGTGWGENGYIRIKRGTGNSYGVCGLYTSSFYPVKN

TPCK-trypsin = TPCK-trypsin (Bos taurus, UniProt P00760); assay: Cross-reactivity protease inhibition assay (QuantiCleave), trypsin; settings: ratio Abs450nm with inhibitor / without inhibitor; 100 μM compound
Description: as §1, §2

papain = papain (Carica papaya, UniProt P00784); assay: Cross-reactivity protease inhibition assay (QuantiCleave), papain; settings: ratio Abs450nm with inhibitor / without inhibitor; 100 μM compound
Description: as §1, §2

Structure (SMILES): O=c1c(-c2ccc3c(c2)OCCO3)coc2cc(O)cc(O)c12
- IC50 [1]: 1780 µM
- Percent Activity [1]: 12.65%
- Ki [1]: 283 µM

Structure (SMILES): O=c1cc(-c2ccc(O)cc2)oc2cc(O)c(O)c(O)c12
- IC50 [1]: 73.9 µM
- Percent Activity [1]: 17.07%
- Ki [1]: 11.7 µM

Structure (SMILES): O=c1c(O)cccc2cc(O)c(O)c(O)c12
- α-Chymotrypsin Activity (α-chymotrypsin): 0.988
- TPCK-Trypsin Activity (TPCK-trypsin): 0.998
- Papain Activity (papain): 0.935

Structure (SMILES): CC1=CC(=O)c2c(O)cccc2C1=O
- α-Chymotrypsin Activity (α-chymotrypsin): 0.857
- TPCK-Trypsin Activity (TPCK-trypsin): 0.644
- Papain Activity (papain): 0.500
- Percent Activity [1]: 10.26%
- Caspase-3 Activity ([1]; relative activity as a fraction, values match Table II percent activity divided by 100): 0.103

Reference: patent US20040198716A1, “Cysteine protease inhimbitors” (priority 2001, published 2004)
